This passage reports IC50 results from EP4553077A1 (Kinoteck Therapeutics Co., Ltd, priority 2022, dated 2024).

Chains of the proteins cited; added tags and fusions are not shown. Lines headed by an entry give the natural chain unless they say otherwise; changes in a name come on top. Residues count along the entry.
UniProt P21802, 481-770 limits assumed: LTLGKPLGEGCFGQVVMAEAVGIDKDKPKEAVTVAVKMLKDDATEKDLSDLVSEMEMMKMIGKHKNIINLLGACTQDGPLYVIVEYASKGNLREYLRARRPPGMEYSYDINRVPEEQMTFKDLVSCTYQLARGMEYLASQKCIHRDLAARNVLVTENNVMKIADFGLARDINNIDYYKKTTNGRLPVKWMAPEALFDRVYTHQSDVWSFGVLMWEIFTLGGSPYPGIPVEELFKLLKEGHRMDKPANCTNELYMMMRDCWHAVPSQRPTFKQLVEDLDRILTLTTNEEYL
UniProt P41212: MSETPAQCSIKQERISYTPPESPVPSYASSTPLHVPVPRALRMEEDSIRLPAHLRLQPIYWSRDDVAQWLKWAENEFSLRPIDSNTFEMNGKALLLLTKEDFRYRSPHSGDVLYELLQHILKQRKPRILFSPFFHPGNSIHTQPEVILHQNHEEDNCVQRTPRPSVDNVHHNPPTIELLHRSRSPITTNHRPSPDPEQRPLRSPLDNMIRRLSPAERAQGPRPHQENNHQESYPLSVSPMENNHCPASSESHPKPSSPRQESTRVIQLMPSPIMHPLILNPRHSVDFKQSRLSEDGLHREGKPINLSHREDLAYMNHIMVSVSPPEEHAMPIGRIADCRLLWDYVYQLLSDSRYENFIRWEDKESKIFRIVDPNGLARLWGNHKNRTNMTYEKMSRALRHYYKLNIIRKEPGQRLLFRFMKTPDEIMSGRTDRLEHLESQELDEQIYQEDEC

This test has as its target Ba/F3-TEL-FGFR2 (Homo sapiens, UniProt P21802+P41212). The experiment in a line: Cell viability (proliferation inhibition) of Ba/F3 cells, CellTiter Glo. Particulars: read-out: Ba/F3 cell FGFR2 (IC50 nM), 72 h.

On to “N- (4- (4-amino-7-methyl-5- (6- (1-oxotetrahydro-1 λ^6-thiophene-1-ylidene) amino) pyridin-3-yl) -7H-pyrrolo [2,3-d] pyrimidin-6-yl) phenyl) methacrylamide [Compound 29]”, for which the IC50 amounted to 1210 nM.
